Laboratory results: ChEMBL document CHEMBL1145819 (J Med Chem, 2003)

By UniProt entry, the sequences of proteins in these tests, tags left out.
UniProt P30966, whole entry: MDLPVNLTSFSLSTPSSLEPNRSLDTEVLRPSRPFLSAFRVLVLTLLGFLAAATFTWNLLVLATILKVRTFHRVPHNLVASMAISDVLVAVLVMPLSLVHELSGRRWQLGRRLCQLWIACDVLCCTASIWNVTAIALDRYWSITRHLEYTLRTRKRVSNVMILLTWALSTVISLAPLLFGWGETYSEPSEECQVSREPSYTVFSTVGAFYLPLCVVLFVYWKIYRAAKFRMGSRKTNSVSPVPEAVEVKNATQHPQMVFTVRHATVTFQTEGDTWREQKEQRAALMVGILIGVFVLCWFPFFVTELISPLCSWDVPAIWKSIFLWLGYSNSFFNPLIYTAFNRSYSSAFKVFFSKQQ

Target: 5-hydroxytryptamine receptor 5A (Mus musculus, UniProt P30966)
Test: Binding affinity towards mouse 5-hydroxytryptamine 5A receptor

Compound: NCCc1c[nH]c2ccc(O)cc12 [SEROTONIN]
- Ki: 150 nM
